The target of this experiment is Alpha2C (Homo sapiens, UniProt P18825). Description: pKi values of test compounds, Alpha2C (Table 1). The experiment is classed as binding.

By UniProt entry, the sequences of proteins in these tests, tags left out.
UniProt P18825, whole entry: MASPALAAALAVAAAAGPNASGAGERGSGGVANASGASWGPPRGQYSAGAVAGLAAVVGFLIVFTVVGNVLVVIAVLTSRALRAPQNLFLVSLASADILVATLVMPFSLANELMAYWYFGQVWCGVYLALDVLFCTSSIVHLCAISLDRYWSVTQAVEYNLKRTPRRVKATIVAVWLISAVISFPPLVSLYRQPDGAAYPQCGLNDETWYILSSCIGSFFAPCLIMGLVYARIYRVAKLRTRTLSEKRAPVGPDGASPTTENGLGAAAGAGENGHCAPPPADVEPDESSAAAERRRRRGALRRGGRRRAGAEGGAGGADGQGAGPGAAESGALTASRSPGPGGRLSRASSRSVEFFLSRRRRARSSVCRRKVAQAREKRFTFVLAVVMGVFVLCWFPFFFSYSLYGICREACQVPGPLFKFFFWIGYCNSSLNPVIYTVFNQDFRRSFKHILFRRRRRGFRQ

The source of these data is EP2236138A1 (priority 2009, dated 2010).

As a reminder, the Ki is a measure of affinity in units of concentration, obtained from inhibition or displacement. Consider `CN(C)CCOC1=Cc2ccccc2Sc2ccc(Cl)cc21` [Zotepine], for which the Ki lay within 10 to 100 nM.
